Legend:
Vero cells = test: Control of cytotoxicity of the disinfectant on cell monolayer; details: virucidal assay control
[1] = tested on: Bacillus subtilis spores ATCC 19659; test: Sporicidal activity, carrier disc ASTM E-2197-02

## methyl ethyl ketone peroxide
Vero cells
  Control of cytotoxicity (CTX): Absence of CTX
[1]; 20% and 25% during 15
  sporicidal activity (conclusion): not absolute although it significantly reduces the number of viable spores
[1]; 20% and 25% during 30 minutes
  sporicidal activity (conclusion): absolute sporicidal activity
[1]; peroxide 15%, exposure time 5 min
  mean number of colony forming units per ml after exposure of 10 test carrier disks: 7.2 × 10^2 CFU/ml
[1]; peroxide 15%, exposure time 15 min
  mean number of colony forming units per ml after exposure of 10 test carrier disks: 4.3 × 10^2 CFU/ml
[1]; peroxide 15%, exposure time 30 min
  mean number of colony forming units per ml after exposure of 10 test carrier disks: 1.8 × 10^2 CFU/ml
[1]; peroxide 20%, exposure time 5 min
  mean number of colony forming units per ml after exposure of 10 test carrier disks: 7.6 × 10^2 CFU/ml
[1]; peroxide 20%, exposure time 15 min
  mean number of colony forming units per ml after exposure of 10 test carrier disks: 0.5 × 10^2 CFU/ml
[1]; peroxide 20%, exposure time 30 min
  mean number of colony forming units per ml after exposure of 10 test carrier disks: 0 CFU/ml
[1]; peroxide 25%, exposure time 5 min
  mean number of colony forming units per ml after exposure of 10 test carrier disks: 5.0 × 10^2 CFU/ml
[1]; peroxide 25%, exposure time 15 min
  mean number of colony forming units per ml after exposure of 10 test carrier disks: 0.3 × 10^2 CFU/ml
[1]; peroxide 25%, exposure time 30 min
  mean number of colony forming units per ml after exposure of 10 test carrier disks: 0 CFU/ml

Reference: patent publication US20100292343A1, “USE OF A DIALKYLKETONE PEROXIDE AS BIOCIDAL, STERILIZING, ANTISEPTIC, DISINFECTING AND ANTI-PARASITIC AGENT” (published 2010)
